Earlier results, collected in US5747524A, “Cannabinoid receptor antagonists” (Eli Lilly and Company, priority 1996, dated 1998).

System: CB-1 receptor
Conditions: in vivo and in vitro models; Rinaldi-Carmons et al. 1994; cited from earlier work

## Cc1c(C(=O)NN2CCCCC2)nn(-c2ccc(Cl)cc2Cl)c1-c1ccc(Cl)cc1 [SR141716A]
  Block of actions of cannabinoids and anandamide (in words): block the actions of both cannabinoids and anandamide in in vivo and in vitro models
